Measured values taken from patent US20190070174A1, “METHODS OF TREATING NEURODEGENERATIVE DISEASES” (priority 2016, published 2019).

System: Drd2 transcripts
Assay: Subchronic treatment of Q84 mice, quantitative RT-PCR
Type: in vivo, mouse
Details: brainstem of Q84 mice
Experimental: YACMJD84.2 transgenic mice were housed in cages with a maximum number of five animals and maintained in a standard 12-hour light/dark cycle with food and water ad libitum. Genotyping was performed using DNA isolated from tail biopsy at the time of weaning, and genotypes of all studied mice were confirmed using DNA extracted from tails collected post-mortem. […] Five hours after the final injection, mice were anesthetized with ketamine/xylazine and perfused transcardially with phosphate buffered saline (PBS) (for RNA and protein studies), and brains were immediately placed on dry ice and stored at −80° C.
Reverse transcription of 1.5 μg of total RNA per sample was performed using the iScript cDNA synthesis kit (Bio-RAD). Human ATXN3 and mouse Atxn3, Drd2, 5HT1A, 5HT2A and Gapdh (housekeeping) transcript levels were accessed by quantitative real-time PCR. Relative gene expression was determined using the ΔΔCT method, normalizing for Gapdh mRNA levels.

## O=C1CCc2ccc(OCCCCN3CCN(c4cccc(Cl)c4Cl)CC3)cc2N1 [aripiprazole]
  Drd2 transcripts: increasing
